Experimental data as given in patent US20230135894A1, “MK2 DEGRADERS AND USES THEREOF” (Kymera Therapeutics, Inc., priority 2021, published 2023).

Protein sequences, listed by entry. Tags and fused reporters are not part of them.
UniProt P49137, whole entry: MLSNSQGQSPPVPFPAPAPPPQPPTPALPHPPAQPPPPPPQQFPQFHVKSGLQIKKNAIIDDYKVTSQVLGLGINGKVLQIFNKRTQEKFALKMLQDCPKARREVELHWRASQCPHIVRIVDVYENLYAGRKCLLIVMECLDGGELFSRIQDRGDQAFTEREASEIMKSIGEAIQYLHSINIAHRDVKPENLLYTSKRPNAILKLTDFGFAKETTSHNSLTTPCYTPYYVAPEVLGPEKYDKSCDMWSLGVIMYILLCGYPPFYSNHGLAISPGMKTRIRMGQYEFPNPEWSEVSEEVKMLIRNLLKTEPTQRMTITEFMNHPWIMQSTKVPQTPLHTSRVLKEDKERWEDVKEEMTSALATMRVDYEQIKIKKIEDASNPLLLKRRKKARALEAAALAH

How the values were obtained:
[1] = molecular target: T1, MK2 (Homo sapiens, UniProt P49137); experiment: MK2 degradation in human THP-1 monocytic cells (MSD, 24 h); settings: for MK2 MSD THP-1 24 h Dmax %: THP-1 cells; for DC50: read-out: MK2 MSD THP-1 degradation 24 h GMean External Abs DC50, THP-1 cells
Protocol: MK2 Degradation in Human THP-1 Monoctyic Cells
(§1) The human monocytic cancer cell line THP-1 (ATCC (TIB-202)) was cultured in 96 well plates (Corning 3894) at a density of 200,000 cells per well in 100 microlitres in complete growth medium of RPMI 1640 (Gibco) pus 10% fetal Bovine Serum (Corning) and Penicillin/Streptomycin (SolarBio) at 37 degrees Celsius and 5% CO2. A serial dilution of each compound (usually 3 to 5 fold serial dilutions up to 10 separate concentration points) was added to individual wells from a 10 millimolar stock solution, at a background concentration of 0.1% DMSO and the cells were shaken at 600 rpm for 5 minutes and then were cultured for 24 hours at 37 degrees Celsius and 5% carbon dioxide. Separately, a custom MSD (MesoScaleDiscovery, L15XA-3) plate for detection of human MK2 was prepared by coating the plate with the commercial AbCam ab247272 reagent in 1×Phosphate Buffered Saline at 40 microlitres per well and incubated at 4 degrees Celsius overnight. The next day, the MSD plate was washed with 150 microlitres of Tween buffered saline, blocked with MSD blocking buffer (3% Blocker A from MSD), and washed again.
(§2) The cell plate was centrifuged at 3,200 g for 5 minutes and the supernatant was discarded and 100 microlitres of RIPA lysis buffer (containing proteinase inhibitors, Boston BioProducts BP-115D) was added and the plate was sealed and shaken on ice for 20 minutes. The plate was centrifuged as before and 70 microlitres of sample lysate was added to the MSD plates and they were shaken at room temperature for 1 hour at 600 rpm. The MSD plate was washed 3 times as before and then the primary MK2 detection antibody (Santa Cruz sc-100393) was added at a final concentration of 1 microgram per ml at 25 microlitres per well and shaken at room temperature for 1 hour at 600 rpm.
(§3) After 3 more washes, the secondary detection antibody (SULFO-Tag anti rabbit antibody R32AB-5) was added at a final concentration of 1 microgram per ml at 25 microlitres per well and shaken at room temperature for 1 hour at 600 rpm. After 3 more washes, the 1×MSD (diluted from 5× concentrate with water) reading buffer was added at 150 microlitres per well and read on the MSD instrument Meso Sector S 600.
(§4) The inhibition/degradation curves and DC50 values were plotted and calculated using XL Fit (version v5.3.1.3) using equation 201 and a 4 parameter logistic model whereby fit=(A+((B−A)/(1+((x/C)D))) where A is the Bottom and B is the Top and C is the IC50 and D is the slope and high C is the signal for the DMSO treated cells and Low C is the signal is the signal for the lysis buffer.

[2] = molecular target: T1, MK2; experiment: MK2 degradation in human SW1353 cells (MSD, 24 h); settings: for DC50: read-out: MK2 MSD SW1353 degradation 24 h GMean External Abs DC50
Protocol: MK2 Degradation in Human SW1353 Cells
as §1, with “chondrocyte” for “monocytic”, “SW-1353 (ATCC(HTB-94))” for “THP-1 (ATCC (TIB-202))”, “Leibovitz's L-15 Medium” for “RPMI 1640”, “Celsius.” for “Celsius and 5% CO2.”, “Celsius.” for “Celsius and 5% carbon dioxide.”
as §2, §3, §4

| MK2 MSD THP-1 24 h Dmax % [1] | DC50 [1] [nM] | MK2 MSD SW 1353 24 h Dmax % [2] | DC50 [2] [nM] | Structure (SMILES) |
| --- | --- | --- | --- | --- |
| A (A (>75%)) | 1 to 10 | A (A (>75%)) | 1 to 10 | C[C@@H]1Cc2[nH]c(-c3ccnc(-c4ccc(N5CCC(CN6CCN(c7cccc8c7n(C)c(=O)n8C7CCC(=O)NC7=O)CC6)CC5)cc4)c3)cc2C(=O)N1 (some centres unmarked) |
| A (A (>75%)) | < 1 | A (A (>75%)) | < 1 | Cn1c(=O)n(C2CCC(=O)NC2=O)c2ccc(N3CC(CN4CCN(c5ccc(-c6nccc(-c7cc8c([nH]7)C7(CCCC7)CNC8=O)n6)c(F)c5)CC4)C3)cc21 (centres unmarked) |
